Paper PMC11323223 (Bioorganic chemistry, 2022)

Protein sequences, listed by entry. Tags and fused reporters are not part of them. Lines headed by an entry give the natural chain unless they say otherwise; changes in a name come on top.
UniProt P05413, whole entry: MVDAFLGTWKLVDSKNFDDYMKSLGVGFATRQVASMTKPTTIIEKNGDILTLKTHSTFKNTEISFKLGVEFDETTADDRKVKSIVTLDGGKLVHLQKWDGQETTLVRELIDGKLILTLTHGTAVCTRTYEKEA
UniProt O15540: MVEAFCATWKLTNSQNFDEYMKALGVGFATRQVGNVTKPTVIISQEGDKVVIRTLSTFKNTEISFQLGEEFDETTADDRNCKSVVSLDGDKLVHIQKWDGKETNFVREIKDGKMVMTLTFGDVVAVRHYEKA

What was measured:
FABP3 = FABP3 (Homo sapiens, UniProt P05413); assay: Fluorescence displacement binding assay; settings: read-out: FABP3 Ki; average ± S.E. of at least three independent experiments
FABP7 = FABP7 (Homo sapiens, UniProt O15540); assay: Fluorescence displacement binding assay; settings: read-out: FABP7 Ki; average ± S.E. of at least three independent experiments

Substance: ε-3-(4′-Fluoro-1,1′-biphenyl-3-ylcarbonyl)-2,4-diphenylcyclobutane-1-carboxylic acid [ε-204]
- Ki (FABP3): 15.5 ± 1.91 µM
- Ki (FABP7): 2.19 ± 0.04 µM
